TDP1 inh – TDP1 (human) enzyme inhibition; Q9NUW8; recombinant TDP1, AlphaScreen DNA substrate cleavage; Potency, µM (series often up to 130 µM), for the others: at the top dose activity change, negative = inhibition, hits mostly inhibitors; 350,000 tested, 0.28% active; AID 485290; also: potency is read from the fitted curve at half-maximal effect; % is scaled to controls: 0 for no effect and ±100 for the full control effect; nearly all actives have a fitted effect of over 40% in size
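Enzyme-compound mixtures sat 15 min at room temperature, followed by a 5 min reaction with 15 nM final substrate and 10 min with AlphaScreen beads. Recombinant human Tdp1 was used at 1 nM final.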
DT40 TDP1 no CPT – qHTS for Inhibitors of human tyrosyl-DNA phosphodiesterase 1 (TDP1): qHTS in cells in absence of CPT | DT40 Tdp1-/- hTDP1 cells, no CPT, ATP luminescence, 48 h | Potency, µM (titrated, usually from 46.2 µM), for inactives: top-dose activity change, negative = growth inhibition, usual class: inhibitors | 420,000 tested, 15% active; also: potency is read from the fitted curve at half-maximal effect; % is scaled to controls: 0 for no effect and ±100 for the full control effect; nearly all actives have a fitted effect of over 55% in size
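Seeded 400 DT40-hTDP1 cells/well (vehicle DMSO, no 20 nM CPT); pinned compounds; ≥48 hr at 37 °C; CellTiter-Glo luminescence as viability measure.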
uPA surface inh – inhibitors of cell surface uPA generation. cell surface uPA generation assay, qHTS. Potency, µM (highest dose often 38.3 µM), for the others: at the highest dose activity change, negative = inhibition, hits mostly inhibitors. 330,000 tested, 0.31% active; active = well fitted inhibition curve with a large enough effect; inconclusive = small, poorly fitted or top-dose-only effect; inactive = no such curve, though single readings can be large or run the other way; tested in mouse RAW 264.7 cells; also: potency is read from the fitted curve at half-maximal effect; % is scaled to controls: 0 for no effect and ±100 for the full control effect; nearly all actives have a fitted effect of over 55% in size
DT40 TDP1 CPT – DT40-hTDP1 cell growth loss with CPT; chicken DT40 Tdp1-/-;hTDP1 cells + 20 nM CPT, ATP luminescence, 48 h; Potency, µM (highest dose often 46.2 µM), without a hit: at the top dose activity change, negative = growth inhibition, actives largely listed as inhibitors; 420,000 tested, 12% active; also: potency is read from the fitted curve at half-maximal effect; % is scaled to controls: 0 for no effect and ±100 for the full control effect; nearly all actives have a fitted effect of over 55% in size
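Chicken DT40 Tdp1-/- cells stably complemented with human TDP1 were seeded at 400 cells/well in medium containing 20 nM camptothecin, exposed to pin-transferred compounds, and grown at 37 °C for at least 48 hr. Viability was read as ATP luminescence.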
miR-21 reporter – miR-21 reporter, rising signal | HeLa miR-21 FLuc reporter, luciferase, 48 h | Potency, µM (doses to about 38.3 µM), inactives show at the top dose reporter change, positive = more light | 340,000 tested, under 10 active | AID 2288; active = well fitted rising curve with a large enough effect; inconclusive = small, poorly fitted or top-dose-only effect; inactive = no such curve, though single readings can be large or run the other way;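 note: % of control where 0% means no effect; miR-21 action dims this reporter so a rising signal means less miR-21 action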
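HeLa miR-21-FLuc reporter line, endogenous miR-21; 2000 cells/well in DMEM/10% FBS; compound titration up to ~40uM final, 48 h, 37 degree Celsius; luciferase detection reagent, 15 min lysis, CCD luminescence.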
The depositor's hits bear a star; ? = inconclusive; · = no result; [ ] = dose if it differs, or a comment. Sampled rows, rich in hits. Any-hit rate of the full collection: about 16%. Unless noted, calls follow the shape of the dose curve; as a rule, active = well fitted curve in the direction sought with a large enough effect; inconclusive = small, poorly fitted or top-dose-only effect, or another doubt; inactive = no such curve, though single readings can be large; an effect the other way counts as inactive or inconclusive.

no. | structure | uPA surface inh | TDP1 inh | DT40 TDP1 no CPT
1 | CCOc1cc(N2CCOCC2)c(OCC)cc1NC(=O)Cc1cccc2ccccc12 | 6% | 6% | ?
2 | CCOc1ccccc1C(=O)NC(C(=O)Nc1ccccc1N1CCOCC1)C(C)C (stereo not given) | · | 3% | ?
3 | CCOc1cc(N2CCOCC2)c(OCC)cc1NC(=O)C(NC(=O)c1c(F)cccc1F)C(C)C (stereo not given) | -5% | · | 9.2µM*
4 | Cc1cc(C)n2nc(C(=O)Nc3ccccc3N3CCOCC3)nc2n1 | · | 1% | ·
5 | COc1cc(C(=O)NCCN=C2NS(=O)(=O)c3ccccc32)cc(OC)c1OC | 1% | · | -10%
6 | COc1cc(CNCCc2ccccc2F)ccc1OCc1ccc(Cl)nc1 | -6% | 2% | 23µM*
7 | COc1cc(CO)ccc1OCc1ccc(Cl)nc1 | -7% | · | 14%
8 | COc1cc(CNCCc2ccc(F)cc2)ccc1OCc1ccc(Cl)nc1 | -6% | -2% | 21µM*
9 | O=C(NN/C(=N/S(=O)(=O)c1ccc(Cl)cc1)c1ccccc1)c1cccc(Cl)c1 | -5% | -19% | -17%
10 | COc1ccc(S(=O)(=O)N2CCCCCC2)cc1NC(=O)c1ccccc1S(C)(=O)=O | -6% | 0%[56.1 µM] | -3%
11 | O=C(CN1C(=O)CC(c2ccco2)Sc2ccccc21)NC1CCCCC1 (stereo not given) | -2% | · | ?
12 | Cc1ccc(Cn2c(CN(C)Cc3ccccc3)nc3c2c(=O)n(C)c(=O)n3C)cc1 | 2% | -1% | ?
13 | CC(C)n1c(CN(C)Cc2ccccc2)nc2c1c(=O)n(C)c(=O)n2C | -6% | · | 0.41µM*
14 | C=C(C)Cn1c(CN(C)Cc2ccccc2)nc2c1c(=O)n(C)c(=O)n2C | ? | · | 5.2µM*
15 | CN(Cc1ccccc1)Cc1nc2c(c(=O)n(C)c(=O)n2C)n1Cc1ccc(F)cc1 | 2% | -1% | ?

no. | miR-21 reporter | DT40 TDP1 CPT
1 | -6% | ?
2 | 1% | ?
3 | · | ?
4 | 0% | ·
5 | 1% | 0%
6 | -28% | 15µM*
7 | -45% | 7%
8 | -13% | 18µM*
9 | -67% | -4%
10 | · | -6%
11 | -4% | ?
12 | -3% | ?
13 | 19% | 0.73µM*
14 | 19% | 7.3µM*
15 | 3% | ?

The closing 4 compounds of the section above lead into the next.
no. | structure | uPA surface inh | TDP1 inh | DT40 TDP1 no CPT
12 | Cc1ccc(Cn2c(CN(C)Cc3ccccc3)nc3c2c(=O)n(C)c(=O)n3C)cc1 | 2% | -1% | ?
13 | CC(C)n1c(CN(C)Cc2ccccc2)nc2c1c(=O)n(C)c(=O)n2C | -6% | · | 0.41µM*
14 | C=C(C)Cn1c(CN(C)Cc2ccccc2)nc2c1c(=O)n(C)c(=O)n2C | ? | · | 5.2µM*
15 | CN(Cc1ccccc1)Cc1nc2c(c(=O)n(C)c(=O)n2C)n1Cc1ccc(F)cc1 | 2% | -1% | ?
16 | Cc1ccc(C)c(Cn2c(CN(C)Cc3ccccc3)nc3c2c(=O)n(C)c(=O)n3C)c1 | -9% | 5% | 15µM*
17 | CC(=O)C(C)n1c(CN(C)Cc2ccccc2)nc2c1c(=O)n(C)c(=O)n2C (stereo not given) | -9% | · | 8.2µM*
18 | CN(Cc1ccccc1)Cc1nc2c(c(=O)n(C)c(=O)n2C)n1Cc1ccc(Cl)cc1 | 1% | 3% | ?
19 | COc1ccc(C)cc1NC(c1nnc(-c2ccccc2)o1)c1ccc(F)cc1Cl (stereo not given) | · | 2%[12.3 µM] | ?
20 | Cc1ccc(N(CC(=O)N2CCN(c3cccc(C)c3C)CC2)S(=O)(=O)c2c(C)nn(C)c2C)cc1 | · | 7% | 9.2µM*
21 | COc1ccc(N(CC(=O)N2CCN(c3ccc(F)cc3)CC2)S(=O)(=O)c2c(C)noc2C)cc1 | -5% | 6% | ?
22 | Cc1ccc(N(CC(=O)N2CCN(c3cc(Cl)ccc3C)CC2)S(=O)(=O)c2c(C)noc2C)cc1 | · | 0% | 9.2µM*
23 | COc1ccc(N(CC(=O)N2CCN(c3cccc(Cl)c3)CC2)S(=O)(=O)c2c(C)noc2C)cc1 | -18% | 4% | 18µM*
24 | COc1ccc(N(CC(=O)N2CCN(c3ccc(Cl)cc3)CC2)S(=O)(=O)c2c(C)noc2C)cc1 | ? | 3% | ?
25 | O=C(NNC(=O)C1CCCN(S(=O)(=O)c2cccc(F)c2)C1)C1CC1 (stereo not given) | -2% | 0% | -14%
26 | CCn1cc(C(=O)OCC(=O)c2cc(C)n(-c3cccc(C(F)(F)F)c3)c2C)c(=O)c2ccc(C)nc21 | 2% | 5% | ?
27 | Cc1sc2ncn(CC(=O)NCC3COc4ccccc4O3)c(=O)c2c1S(=O)(=O)N1CCCCC1 (stereo not given) | -4% | -5% | ?
28 | CCOc1ccc(N(CC(=O)N2CCN(c3ccc(F)cc3)CC2)S(=O)(=O)c2c(C)noc2C)cc1 | -12% | 6% | ?
29 | COc1ccc(N(CC(=O)N2c3ccccc3CC2C)S(=O)(=O)c2c(C)nn(C)c2C)cc1 (stereo not given) | 10% | 4% | 18µM*
30 | CCOc1ccc(N(CC(=O)N2CCN(c3ccccc3F)CC2)S(=O)(=O)c2c(C)noc2C)cc1 | 3% | 5% | 5%

no. | miR-21 reporter | DT40 TDP1 CPT
12 | -3% | ?
13 | 19% | 0.73µM*
14 | 19% | 7.3µM*
15 | 3% | ?
16 | 13% | 18µM*
17 | 0% | 8.2µM*
18 | -1% | ?
19 | 8% | ?
20 | ? | 8.2µM*
21 | 6% | 26µM*
22 | 21% | 21µM*
23 | 18% | 16µM*
24 | 19% | ?
25 | 0% | 2%
26 | -4% | ?
27 | 0% | -3%
28 | 14% | 26µM*
29 | 0% | ?
30 | 0% | -2%

Next part.
no. | structure | uPA surface inh | TDP1 inh | DT40 TDP1 no CPT
31 | Cc1nn(C)c(C)c1S(=O)(=O)N(CC(=O)N1CCN(c2ccccc2)CC1)c1ccc(C(C)C)cc1 | · | -4% | 16µM*
32 | COc1ccc(N(CC(=O)N2CCN(c3ccccc3)CC2)S(=O)(=O)c2c(C)nn(C)c2C)cc1 | · | 0% | ?
33 | COc1ccc(N(CC(=O)N2CCc3ccccc32)S(=O)(=O)c2c(C)nn(C)c2C)cc1 | -1% | 3% | ?
34 | COc1ccc(N(CC(=O)N2CCN(c3ccc(F)cc3)CC2)S(=O)(=O)c2c(C)nn(C)c2C)cc1 | · | -2% | 23µM*
35 | CC1(c2cccc(Br)c2)NC(=O)N(CC(=O)c2ccc3c(c2)OCO3)C1=O (stereo not given) | · | · | -18%
36 | COc1ccc(N(CC(=O)NCCc2ccccc2)S(=O)(=O)c2c(C)nn(C)c2C)cc1 | · | 2% | ?
37 | Cc1nn(C)c(C)c1S(=O)(=O)N(CC(=O)NCCc1ccc(Cl)cc1)c1ccc(C(C)C)cc1 | · | 6% | 15µM*
38 | CCC(C)Sc1cc(C)c(C#N)c2nc3ccccc3n12 (stereo not given) | -9% | 6% | 16µM*
39 | CCOC(=O)CSc1cc(C)c(C#N)c2nc3ccccc3n12 | 1% | 3% | 23µM*
40 | CN(c1ccc(C(=O)Nc2ccc(F)cc2F)cc1)S(=O)(=O)c1ccccc1 | -19% | -2% | ?
41 | C=C(C)Cc1c(C)c(C#N)c2[nH]c3ccccc3n2c1=O | -3% | · | ?
42 | CCc1c(C)c(C#N)c2[nH]c3ccccc3n2c1=S | -1% | 5% | 12µM*
43 | Cc1ccc(Cc2c(C)c(C#N)c3[nH]c4ccccc4n3c2=O)cc1 | -15% | -1% | 23µM*

no. | miR-21 reporter | DT40 TDP1 CPT
31 | -2% | 16µM*
32 | -1% | 4%
33 | -2% | ?
34 | -7% | ?
35 | · | -22%
36 | 3% | -12%
37 | -3% | 16µM*
38 | 0% | 18µM*
39 | -1% | ?
40 | 2% | -28%
41 | 4% | 3%
42 | -4% | 12µM*
43 | 3% | ?
